In US20240209302A1, “SYSTEMS, METHODS, AND DEVICES FOR EX VIVO ANALYSIS OF RESECTED TISSUE SAMPLES” (The United States of America,as represented by the …, priority 2020, published 2024):

Tested on: CD45-positive cells in gastric cancer metastases to the peritoneum
Test: Live imaging of immune cell tracking in perfused ex vivo tissue after IL-2
Assay type: cell-based, human
Conditions: IL2 added to culture medium; live imaging after 4 days in culture
Procedure: Finally, immune cells can be tracked and monitored in the system of FIG. 7A. With the application of IL-2, a leucocyte activating cytokine, cell velocity and displacement is quantifiable. This can be an important metric for agents that aim to activate various immune subpopulations. For example, FIGS. 11B-11C show Interferon-γ and IL-12 secretion retained after 4 days in culture. Sample platforms in culture on Day 0 and Day 4 were stimulated with PMA (10 ng/ml) or LPS (100 ng/mL) for twelve hours and media was tested for Interferon-γ and IL-12 respectively across various histologies. […] In FIGS. 11E-11F, sample platforms bearing gastric cancer metastases to the peritoneum was evaluated via life imaging after 4 days in culture in system 700 of FIG. 7A.
In any of the above discussed examples, tissue from system 700 was subject to similar tumor imaging techniques. For example, for live imaging, sample platforms were removed from the system 700 at indicated time points and transferred to a 24 well plate containing 1 ml perfusate supplemented with 0.5 μg fluorophore-conjugated antibodies (CD45; CD44; CD117) and incubated for 3 hours at 37° C. […]
Image acquisition was performed on an inverted Leica SP8 setup using multiphoton excitation at 870 nm together with a 25×/0.95 W VISIR lens. […] Images were analyzed using ImageJ software. […]

interleukin-2 [IL2]
displacement of CD45-positive cells: increase | velocity of CD45-positive cells: increase
